Source: patent US9555023B2, “Pharmaceutical salts and polymorphs of a factor Xa inhibitor” (Millennium Pharmaceuticals, Inc., priority 2005, dated 2017)

What was measured:
[1] = Secondary screen: crystallinity (XRPD); type: physicochemical
Protocol: X-Ray Powder Diffraction patterns were collected on a Siemens D5000 diffractometer using CuKα radiation (40 kV, 40 mA), […], automatic divergence and receiving slits, a graphite secondary monochromator and a scintillation counter.
Samples run under ambient conditions were prepared as flat plate specimens using powder. Approximately 35 mg of the sample was gently packed into a cavity cut into polished, zero-background (510) silicon wafer. The sample was rotated in its own plane during analysis. The details of the data collection are given for the method in Table 2 below: […]

[2] = Gravimetric vapour sorption (GVS) water sorption; type: physicochemical; details: 25° C., 0-90% RH, listed as salt of Formula II
Protocol: All samples were run on a Hiden IGASorp moisture sorption analyzer running CFRSorp software. Sample sizes were typically 10 mg. A moisture adsorption desorption isotherm was performed as outlined below (2 scans giving 1 complete cycle). All samples were loaded/unloaded at typical room humidity and temperature (40% RH, 25° C.). All samples were analyzed by XRPD post GVS analysis. The standard isotherm was performed at 25° C. at 10% RH intervals over a 0-90% RH range.

[3] = Stability: hydrolyzed amidine content by HPLC after 57° C. / 75% humidity; type: physicochemical; details: 75% room humidity, percentage of the main peak
Protocol: To assess the thermal and hydrolytic stability of the salt, tests known to those of skill in the art are performed.
The sample solvent was methanol and a mobile phase modifier of 0.1% trifluoroacetic acid was employed. Data were collected after 3, 6 and 10 days except data for the propionate was collected at 0, 3, and 8 days. […] All other impurity peaks were disregarded in the calculation

[4] = at 100° C.

In the case of `COc1ccc(NC(=O)c2ccc(C(=N)N(C)C)cc2)c(C(=O)Nc2ccc(Cl)cn2)c1` [Maleate], the “crystallinity (in words)” value [1] was “excellent crystallinity”, the Crystallinity ([1]; secondary screen, Table 5) was “crystalline” and the “Water Sorption (reversibility, level of uptake)” value [2] was “reversible”. The “Hydrolyzed Amidine Content (3 days)” value ([3]; 3 days) was 0.0%, the “Hydrolyzed Amidine Content (6 days)” value ([3]; 6 days) was 0.0% and the “Hydrolyzed Amidine Content (10 days)” value ([3]; 10 days) was 0.0%. The “weight loss (TGA)” value [4] was 0.62%.
